# Measured values: PubChem BioAssay AID1479 (National Center for Advancing Translational Sciences (NCATS), 2009)
# Only a part is listed here, and it is no random draw. Activity calls are given as the source filed them. Calls come from the whole dose curve; as a rule, active = well fitted curve in either direction with a large enough effect; inconclusive = small, poorly fitted or top-dose-only effect; inactive = flat fitted curve, though single readings scatter.
# Assay: Total Fluorescence Counterscreen for Inhibitors of the Interaction of Thyroid Hormone Receptor and Steroid Receptor Coregulator 2
# Conditions: TRb/SRC2 Texas Red total fluorescence interference
# % is set by controls: 0 for no effect and ±100 for the full control effect.
smiles,measurement,setting,value
CCOC(=O)c1ccc(NP(C)(=O)Oc2ccc(F)cc2)cc1 (centres undefined),"fluorescence change, negative = quenching",at 106 µM (top of the series),inactive: -1.3%
COc1ccc(OP(C)(=O)Nc2ccc(SC(F)(F)F)cc2)cc1 (centres undefined),"fluorescence change, negative = quenching",at 106 µM (top of the series),inactive: -1.02%
Cc1cccc([N+](=O)[O-])c1[N+](=O)[O-],"fluorescence change, negative = quenching",at 106 µM (top of the series),inactive: 0.0962%
same,"fluorescence change, negative = quenching",at 201 µM (top of the series),inactive: -1.31%
CCC(C)(OO)OOC(C)(CC)OO (centres undefined),"fluorescence change, negative = quenching",at 106 µM (top of the series),inactive: 0.674%
same,"fluorescence change, negative = quenching",at 201 µM (top of the series),inactive: -2.71%
O=C(OCCN1CCN(CCOCc2ccccc2)CC1)C(O)(c1ccccc1)c1ccccc1,"fluorescence change, negative = quenching",at 53 µM (top of the series),inactive: -0.404%
CP(=O)(Nc1ccccc1F)Oc1ccccc1 (centres undefined),"fluorescence change, negative = quenching",at 106 µM (top of the series),inactive: 0.499%
CC(C)c1ccc(OP(C)(=O)Nc2ccc(SC(F)(F)F)cc2)cc1 (centres undefined),"fluorescence change, negative = quenching",at 106 µM (top of the series),inactive: 0.0092%
[NH4+].[O-][Cl+3]([O-])([O-])[O-],"fluorescence change, negative = quenching",at 106 µM (top of the series),inactive: -1.85%
Cc1ccccc1NP(C)(=O)Nc1ccccc1C,"fluorescence change, negative = quenching",at 106 µM (top of the series),inactive: -4.74%
CP(=O)(Nc1ccc2c(c1)OCCO2)Oc1ccccc1 (centres undefined),"fluorescence change, negative = quenching",at 106 µM (top of the series),inactive: -6.5%
CCOP(C)(=S)SCC(=O)NC(C)(CC)C(=O)O (centres undefined),"fluorescence change, negative = quenching",at 106 µM (top of the series),inactive: -4.27%
CCOP(=O)(CC)OCC,"fluorescence change, negative = quenching",at 106 µM (top of the series),inactive: -0.855%
CP(=O)(Nc1ccc(SC(F)(F)F)cc1)Oc1ccc(F)cc1 (centres undefined),"fluorescence change, negative = quenching",at 106 µM (top of the series),inactive: -2.2%
O=[N+]([O-])c1ccc(OP2(=O)COCCO2)cc1 (centres undefined),"fluorescence change, negative = quenching",at 106 µM (top of the series),inactive: -2.45%
Cc1cc(-c2cccc3ccccc23)c(C)cn1.O=[N+]([O-])c1cc([N+](=O)[O-])c(O)c([N+](=O)[O-])c1,"fluorescence change, negative = quenching",at 106 µM (top of the series),inactive: -1.75%
Cc1ccc([N+](=O)[O-])c([N+](=O)[O-])c1,"fluorescence change, negative = quenching",at 106 µM (top of the series),inactive: -0.724%
same,"fluorescence change, negative = quenching",at 201 µM (top of the series),inactive: -5.25%
Cc1c([N+](=O)[O-])cccc1[N+](=O)[O-],"fluorescence change, negative = quenching",at 106 µM (top of the series),inactive: -1.47%
same,"fluorescence change, negative = quenching",at 201 µM (top of the series),inactive: -3.38%
COc1ccc(NP(C)(=O)Oc2ccccc2OC)cc1 (centres undefined),"fluorescence change, negative = quenching",at 106 µM (top of the series),inactive: 0.681%
COc1ccc(OP(C)(=O)Nc2cccc(Br)c2)cc1 (centres undefined),"fluorescence change, negative = quenching",at 106 µM (top of the series),inactive: -5.58%
C/C1=C2N=C(/C=C3N=C(/C(C)=C4\[N-][C@@](C)([C@H]5N=C1[C@@](C)(CCC(=O)NC[C@H](C)OP(=O)([O-])O[C@@H]1[C@H](O)[C@H](n6cnc7cc(C)c(C)cc76)O[C@@H]1CO)[C@@H]5CC(N)=O)[C@](C)(CC(N)=O)[C@H]4CCC(N)=O)[C@@](C)(CC(N)=O)[C@@H]\3CCC(N)=O)C(C)(C)[C@@H]/2CCC(N)=O.[C-]#N.[Co+3],"fluorescence change, negative = quenching",at 53 µM (top of the series),inactive: -2.3%
CCOC(=O)c1ccc(NP(C)(=O)Oc2ccc(Cl)cc2)cc1 (centres undefined),"fluorescence change, negative = quenching",at 106 µM (top of the series),inactive: -2.96%
CP(=O)(OC12CC3CC(CC(C3)C1)C2)OC12CC3CC(CC(C3)C1)C2,"fluorescence change, negative = quenching",at 106 µM (top of the series),inactive: -0.231%
CN(C)C(=O)c1c([N+](=O)[O-])cc([N+](=O)[O-])cc1[N+](=O)[O-],"fluorescence change, negative = quenching",at 106 µM (top of the series),inactive: -2.7%
CC(C)(C)c1ccc(OP(C)(=O)O)cc1,"fluorescence change, negative = quenching",at 106 µM (top of the series),inactive: -2.64%
COc1ccccc1OP(C)(=O)Nc1ccccc1Br (centres undefined),"fluorescence change, negative = quenching",at 106 µM (top of the series),inactive: -4.05%
CP(=O)(Nc1ccc(Cl)cc1)Oc1ccc(F)cc1 (centres undefined),"fluorescence change, negative = quenching",at 106 µM (top of the series),inactive: -0.0772%
OCCSCCO,"fluorescence change, negative = quenching",at 106 µM (top of the series),inactive: -1.67%
COc1ccccc1OP(C)(=O)Nc1c(C)n(C)n(-c2ccccc2)c1=O (centres undefined),"fluorescence change, negative = quenching",at 106 µM (top of the series),inactive: -0.434%
CCc1ccc(OP(C)(=O)Nc2cccnc2)cc1 (centres undefined),"fluorescence change, negative = quenching",at 106 µM (top of the series),inactive: -4.32%
CP(=O)(Oc1ccccc1)N1CCOC1=O (centres undefined),"fluorescence change, negative = quenching",at 106 µM (top of the series),inactive: 0.36%
COc1ccc(OP(C)(=O)Nc2ccc(Br)cc2)cc1 (centres undefined),"fluorescence change, negative = quenching",at 106 µM (top of the series),inactive: -1.16%
COc1ccccc1OP(C)(=O)Nc1ccc(C)cc1C (centres undefined),"fluorescence change, negative = quenching",at 106 µM (top of the series),inactive: -1.64%
CP(=O)(Nc1ccccn1)Oc1ccccc1 (centres undefined),"fluorescence change, negative = quenching",at 106 µM (top of the series),inactive: 3.82%
CCc1ccc(OP(C)(=O)O)cc1,"fluorescence change, negative = quenching",at 106 µM (top of the series),inactive: 0.0137%
O=[N+]([O-])c1cc([N+](=O)[O-])c(Nc2ccccn2)c([N+](=O)[O-])c1,"fluorescence change, negative = quenching",at 106 µM (top of the series),inactive: -0.265%
Cc1c(NP(C)(=O)Oc2ccc(C(C)C)cc2)c(=O)n(-c2ccccc2)n1C (centres undefined),"fluorescence change, negative = quenching",at 106 µM (top of the series),inactive: -1.18%
COc1ccc(OP(C)(=O)Nc2ccccn2)cc1 (centres undefined),"fluorescence change, negative = quenching",at 106 µM (top of the series),inactive: 1.11%
CN(C)CCOC(=O)C(O)(c1ccccc1)C1CCCC1 (centres undefined),"fluorescence change, negative = quenching",at 106 µM (top of the series),inactive: -0.648%
COc1ccccc1OP(C)(=O)Nc1ccc(Br)cc1 (centres undefined),"fluorescence change, negative = quenching",at 106 µM (top of the series),inactive: -5.01%
CP(=O)(OCCOc1ccccc1)OCCOc1ccccc1,"fluorescence change, negative = quenching",at 106 µM (top of the series),inactive: -5.03%
CP(=O)(Nc1ccc(Cl)cc1Cl)Oc1ccccc1 (centres undefined),"fluorescence change, negative = quenching",at 106 µM (top of the series),inactive: 0.415%
Cc1nc2ccc3ccccc3c2o1.O=[N+]([O-])c1cc([N+](=O)[O-])c(O)c([N+](=O)[O-])c1,"fluorescence change, negative = quenching",at 106 µM (top of the series),inactive: -17.8%
COc1ccccc1OP(C)(=O)Nc1ccc(C)c(C)c1 (centres undefined),"fluorescence change, negative = quenching",at 106 µM (top of the series),inactive: -1.32%
COc1ccc(OP(C)(=O)Nc2ccccc2Br)cc1 (centres undefined),"fluorescence change, negative = quenching",at 106 µM (top of the series),inactive: -0.892%
Cc1cc(C)cc(OP(C)(=O)Nc2cccc(C(F)(F)F)c2)c1 (centres undefined),"fluorescence change, negative = quenching",at 53 µM (top of the series),inactive: -2.11%
